Assay results taken from patent US11168102B1, “Bicyclic heteroaryl compounds and uses thereof” (Revolution Medicines, Inc., priority 2019, dated 2021).

Test system: cellular pERK in PC-9 cells (EGFR Ex19Del)
Assay: Potency assay: pERK (AlphaLISA SureFire Ultra p-ERK1/2) in PC-9 cells
Type: cell-based
Settings: Homo sapiens, PC-9, 1 h, read-out: SOS1 pERK IC50

C[C@@H](Nc1ncnc2c1cc(C1CCS(=O)(=NC#N)CC1)c(=O)n2C)c1cccc(C(F)F)c1F (stereo partly drawn) [Example 47, [4-[4-[[(1R)-1-[3-(difluoromethyl)-2-fluoro-phenyl]ethyl]amino]-8-methyl-7-oxo-pyrido[2,3-d]pyrimidin-6-yl]-1-oxo-thian-1-ylidene]cyanamide]
IC50: 54.7 nM
